# Laboratory results: PubChem BioAssay AID2014 (Sanford-Burnham Center for Chemical Genomics, 2009)
# By UniProt entry, the sequences of proteins in these tests, tags left out.
# UniProt P11940, whole entry: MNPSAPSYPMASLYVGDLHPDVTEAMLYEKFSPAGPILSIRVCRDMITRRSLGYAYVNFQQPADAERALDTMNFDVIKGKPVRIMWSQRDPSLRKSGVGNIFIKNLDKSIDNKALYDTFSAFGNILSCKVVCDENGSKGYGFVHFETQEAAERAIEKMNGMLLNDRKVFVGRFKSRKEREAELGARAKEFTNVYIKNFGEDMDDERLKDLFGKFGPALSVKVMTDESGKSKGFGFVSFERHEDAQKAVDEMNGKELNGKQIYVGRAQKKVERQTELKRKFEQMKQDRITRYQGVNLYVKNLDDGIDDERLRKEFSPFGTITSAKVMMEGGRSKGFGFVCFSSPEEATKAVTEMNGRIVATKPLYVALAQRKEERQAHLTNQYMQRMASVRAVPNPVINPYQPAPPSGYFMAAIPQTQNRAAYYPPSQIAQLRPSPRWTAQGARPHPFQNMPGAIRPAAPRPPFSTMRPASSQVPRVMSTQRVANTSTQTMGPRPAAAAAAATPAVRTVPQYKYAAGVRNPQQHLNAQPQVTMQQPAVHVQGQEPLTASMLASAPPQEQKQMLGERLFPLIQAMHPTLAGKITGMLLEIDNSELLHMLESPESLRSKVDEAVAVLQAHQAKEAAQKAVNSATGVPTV
# Where “and” joins values, the source holds several entries; their conditions need not be identical. Equal values may be shown once. This is a selection; strong and weak results do not stand in their true shares. Some structures show a salt or complex split into parts, the way the source records it. Calls of active or inactive are those of the source. How the calls were made is not given here.
# Biological target: Polyadenylate-binding protein 1 (Homo sapiens) (UniProt P11940)
# Experiment: blockers of PABP interaction with poly(A) – biochemical, fluorescence polarization, uHTS, primary screen (AID 2014)
# Conditions: PABP-poly(A) RNA binding, at 35 µM, hits give high values
row,SMILES,inhibition
1,O=P1(Nc2nc3ccc(Cl)cc3s2)COc2ccccc2O1 (stereo not given),inactive: 9.4%
2,CCOc1ccc(C2=NCC(CBr)S2)cc1 (stereo not given),inactive: -23.1%
3,CC(C)(C)C(=O)NC(Sc1ccccc1)C(Cl)(Cl)Cl (stereo not given),inactive: 82.4%
4,CC(C)c1ccc(OP(C)(=O)Nc2ccc(SC(F)(F)F)cc2)cc1 (stereo not given),inactive: -1.8%
5,CP(=O)(Nc1ccccc1F)Oc1ccccc1 (stereo not given),inactive: 12.8%
6,O=C(OCCN1CCN(CCOCc2ccccc2)CC1)C(O)(c1ccccc1)c1ccccc1,inactive: 4.4%
7,C[C@H]1OP(=O)(Oc2ccccc2)C[C@@H]2O[C@@H]21 (stereo not given in full),inactive: -0.9%
8,C[C@@H]1C=CCP(=O)(Oc2ccccc2)O1 (stereo not given in full),inactive: -5.4%
9,CC(=O)c1ccc(N2CC2c2ccncc2)cc1 (stereo not given),inactive: 0.8%
10,O=C(OC1CN2CCC1CC2)c1ccc([N+](=O)[O-])cc1 (stereo not given),inactive: 7.7%
11,CC(=O)Nc1ccc([As](=O)(O)O)c(O)c1,inactive: -8.9%
12,COc1ccc2c(c1O)-c1c(O)c(OC)cc3c1[C@H](C2)[N+](C)(C)CC3.O=[N+]([O-])c1cc([N+](=O)[O-])c([O-])c([N+](=O)[O-])c1[O-],inactive: 31.3%
13,CC(=O)Nc1ccc(Oc2c([N+](=O)[O-])cc([N+](=O)[O-])cc2[N+](=O)[O-])cc1,inactive: 17.9%
14,c1ccc(-c2nn[nH]n2)c(-c2nn[nH]n2)c1,inactive: -1%
15,CCOC(=O)NC(Sc1ccccc1)C(Cl)(Cl)Cl (stereo not given),inactive: 0.5%
16,Cc1ccc(NP(=O)(Oc2cccc(C)c2)Oc2cccc(C)c2)nc1,inactive: 6.8%
17,O=C(NC1CCS(=O)(=O)C1)NP(=S)(Oc1ccccc1)Oc1ccccc1 (stereo not given),inactive: 19.4%
18,CCNC(=S)/N=C(\N)N[N+](=O)[O-],inactive: 5.8%
19,COc1ccc(OP(C)(=O)Nc2ccc(SC(F)(F)F)cc2)cc1 (stereo not given),inactive: 82.4%
20,CCOC(=O)c1ccc(NP(C)(=O)Oc2ccc(F)cc2)cc1 (stereo not given),inactive: 0.9%
21,O=C(OC1CN2CCC1CC2)c1ccccc1 (stereo not given),inactive: -10.5%
22,CCC(=O)N1C2C3N(C(=O)CC)C1C1N(C(=O)CC)C(C(N1C(=O)CC)N3C(=O)CC)N2C(=O)CC,inactive: 2.3%
23,CCN(CC)CCCOC(=O)C(O)(c1ccccc1)C1CCCCC1 (stereo not given),inactive: -7.8%

row,SMILES,inhibition
1,COC(=O)c1cc2c(s1)N=C(c1ccccc1)N(C)P2(=O)N1CCOCC1 (stereo not given),inactive: -4.5%
2,Cc1ccc(OP(=O)(Nc2ccccn2)Oc2ccc(C)cc2)cc1,inactive: -4.9%
3,CC(=O)NC(SC(=S)N(CC(C)C)CC(C)C)C(Cl)(Cl)Cl (stereo not given),inactive: 1.9%
4,Cc1ccccc1OP(=O)(Nc1ccccn1)Oc1ccccc1C,inactive: -2.4%
5,O=[N+]([O-])c1cc([N+](=O)[O-])c(OC2CCCCC2O)c([N+](=O)[O-])c1 (stereo not given),inactive: 1.7%
6,CCCCCOc1ccc(NP(C)(=O)Oc2ccc(Cl)cc2Cl)cc1 (stereo not given),inactive: -6.3%
7,O=c1c2cc([N+](=O)[O-])ccc2[nH]c2c([N+](=O)[O-])cc([N+](=O)[O-])cc12,inactive: 3.9%
8,CN(C)C(=O)Oc1noc2ccccc12,inactive: 1%
9,CP(=O)(Nc1ccccc1)Oc1ccc(F)cc1 (stereo not given),inactive: -4.4%
10,CN(C)C1(CNC(=O)c2ccc(Cl)c(S(N)(=O)=O)c2)CCCCC1,inactive: 6.6%
11,O=P(Nc1ccccn1)(c1ccc(Br)cc1)c1ccc(Br)cc1,inactive: -0.5%
12,COc1ccc(OP(C)(=O)Nc2cccc(Br)c2)cc1 (stereo not given),inactive: -2.1%
13,COc1ccc(NP(C)(=O)Oc2ccccc2OC)cc1 (stereo not given),inactive: 9.3%
14,O=P(Nc1nc2ccccc2s1)(c1ccccc1)c1ccccc1,inactive: -10.5%
15,CN(C)CCOC(=O)C(O)(c1ccccc1)C1CCCCC1 (stereo not given),inactive: 0.1%
16,C[C@H]1OP(=O)(Oc2ccccc2)[C@H](O)[C@H](O)[C@H]1N=[N+]=[N-] (stereo not given in full),inactive: -2.9%
17,O=[As](O)(c1ccccc1)c1ccc(O)cc1,inactive: 2.2%
18,O=[N+]([O-])c1cc([N+](=O)[O-])c(NCC2CCS(=O)(=O)C2)c([N+](=O)[O-])c1 (stereo not given),inactive: 1.9%
19,Cc1cc(-c2cccc3ccccc23)c(C)cn1.O=[N+]([O-])c1cc([N+](=O)[O-])c(O)c([N+](=O)[O-])c1,inactive: -0.5%
20,O=[N+]([O-])c1ncn(CCn2cnc([N+](=O)[O-])n2)n1,inactive: -6%
21,O=[N+]([O-])c1ccc(OP2(=O)COCCO2)cc1 (stereo not given),inactive: 2.7%
22,O=[N+]([O-])c1ccc(O)c(/C=N/Nc2ccc([N+](=O)[O-])cc2[N+](=O)[O-])c1,inactive: 4.6%
23,O=C(OC1CN2CCC1CC2)c1cccc(Cl)c1 (stereo not given),inactive: 0.7%

row,SMILES,inhibition
1,C(Cc1nn[nH]n1)Cc1nn[nH]n1,inactive: 47.7%
2,Nc1ccc([As](=O)(O)c2ccc([N+](=O)[O-])cc2)cc1,inactive: 0.4%
3,O=P(Nc1nccs1)(c1ccccc1)c1ccccc1,inactive: 1.8%
4,CC(C)C(=O)NC(Sc1ccccc1)C(Cl)(Cl)Cl (stereo not given),inactive: 10.1%
5,CP(=O)(Nc1ccc(SC(F)(F)F)cc1)Oc1ccc(F)cc1 (stereo not given),inactive: -9.2%
6,c1nnnn1CCn1cnnn1,inactive: -7.6%
7,CCOP(C)(=S)SCC(=O)NC(C)(CC)C(=O)O (stereo not given),inactive: 4.5%
8,CP(=O)(Nc1ccc2c(c1)OCCO2)Oc1ccccc1 (stereo not given),inactive: 13.2%
9,Cc1ccccc1NP(C)(=O)Nc1ccccc1C,inactive: -5%
10,CCN(CC)CC(O)COC(=O)C(O)(c1ccccc1)C1CCCCC1 (stereo not given),inactive: 4.2%
11,COc1ccc(C2=NCC(CBr)S2)cc1 (stereo not given),inactive: 11.3%
12,COc1ccc(OP(C)(=O)Nc2ccc(Br)cc2)cc1 (stereo not given),inactive: -4%
13,Cc1ccc(NP(=O)(Oc2ccccc2)Oc2ccccc2)nc1,inactive: -8.9%
14,CP(=O)(Oc1ccccc1)N1CCOC1=O (stereo not given),inactive: 8.1%
15,CCc1ccc(OP(C)(=O)Nc2cccnc2)cc1 (stereo not given),inactive: -16.5%
16,O=[N+]([O-])c1cc([N+](=O)[O-])c(CCNc2ccccc2)c([N+](=O)[O-])c1,inactive: -3.7%
17,CCc1nc2c(n1)c1c(non1O)c1c2no[n+]1[O-],inactive: 7%
18,CC(=O)N1C2C3N(C(C)=O)C1C1N(C(C)=O)C(C(N1C(C)=O)N3C(C)=O)N2C(C)=O,inactive: 48%
19,O=[N+]([O-])c1cccc2n[nH]nc12,inactive: -7.3%
20,COc1ccccc1OP(C)(=O)Nc1c(C)n(C)n(-c2ccccc2)c1=O (stereo not given),inactive: -9.9%
21,O=C(OCCCN1CCCC1)C(O)(c1ccccc1)C1CCCCC1 (stereo not given),inactive: 8.7%
22,CCN(/C(=N/P(=O)(N1CCOCC1)N1CCOCC1)N1CCOCC1)c1ccc(OC)cc1,inactive: -1.5%
23,CP(=O)(Nc1ccc(Cl)cc1)Oc1ccc(F)cc1 (stereo not given),inactive: -7.9%

row,SMILES,inhibition
1,COc1ccccc1OP(C)(=O)Nc1ccccc1Br (stereo not given),inactive: 9.7%
2,Nc1ccc([As](=O)(O)c2ccc(N)cc2)cc1,inactive: 13.1%
3,CC(C)(C)c1ccc(OP(C)(=O)O)cc1,inactive: 5.1%
4,CC1CCN(C(=O)Oc2c(Cl)cc(Cl)c3cccnc23)CC1,inactive: 2.3%
5,CC(C)=N/N=C(\N)N[N+](=O)[O-],inactive: -5.9%
6,CN(C)C(=O)c1c([N+](=O)[O-])cc([N+](=O)[O-])cc1[N+](=O)[O-],inactive: 0.5%
7,CN(C)C(=O)OCCc1n(C)cc[n+]1C,inactive: -14.1%
8,CP(=O)(OC12CC3CC(CC(C3)C1)C2)OC12CC3CC(CC(C3)C1)C2,inactive: 0.2%
9,CCOC(=O)c1ccc(NP(C)(=O)Oc2ccc(Cl)cc2)cc1 (stereo not given),inactive: -6.5%
10,O=C(Nc1cc([As](=O)(O)O)ccc1O)c1ccccc1,inactive: 11.7%
11,O=[N+]([O-])c1ncn(CCn2ncnc2[N+](=O)[O-])n1,inactive: 5.1%
12,CC(C)(C)C(=O)NC(Sc1ccncn1)C(Cl)(Cl)Cl (stereo not given),inactive: 3.6%
13,O=C(O)CNc1ccc([As](=O)(O)O)cc1,inactive: 12.1%
14,O=[N+]([O-])c1cccc(NC2=NCC(CBr)S2)c1 (stereo not given),inactive: 7.3%
15,O=P(Nc1nc2ccc(Cl)cc2s1)(c1ccccc1)c1ccccc1,inactive: 4.1%
16,Cc1cc(C)cc(OP(C)(=O)Nc2cccc(C(F)(F)F)c2)c1 (stereo not given),inactive: -4.8%
17,CC(=O)Nc1ccc([As](=O)(O)O)cc1,inactive: -0.7%
18,O=C(O)c1ccccc1[As](=O)(O)O,inactive: 6.9%
19,COc1ccc(OP(C)(=O)Nc2ccccc2Br)cc1 (stereo not given),inactive: -5.9%
20,Cc1cc(SC(NC(=O)c2ccc(F)cc2)C(Cl)(Cl)Cl)ncn1 (stereo not given),inactive: 5.1%
21,CCOP(=O)(Nc1ccccc1)OCC,inactive: 3.2% and inactive: -0.9%
22,COc1ccccc1OP(C)(=O)Nc1ccc(C)c(C)c1 (stereo not given),inactive: -0.8%
23,Cc1ccc(NP(=O)(Oc2ccccc2F)Oc2ccccc2F)nc1,inactive: -8.7%

row,SMILES,inhibition
1,Cc1nc2ccc3ccccc3c2o1.O=[N+]([O-])c1cc([N+](=O)[O-])c(O)c([N+](=O)[O-])c1,inactive: 6%
2,CP(=O)(Nc1ccc(Cl)cc1Cl)Oc1ccccc1 (stereo not given),inactive: 2.2%
3,CP(=O)(OCCOc1ccccc1)OCCOc1ccccc1,inactive: -2.4%
4,CCN(N=Nc1nonc1N)c1nonc1N,inactive: 0.7%
5,COc1ccccc1OP(C)(=O)Nc1ccc(Br)cc1 (stereo not given),inactive: 2.9%
6,Cc1ccc(N/C(=N/P(=O)(N2CCOCC2)N2CCOCC2)N2CCOCC2)cc1,inactive: -1.2%
7,NC(=O)c1cc([N+](=O)[O-])cc([N+](=O)[O-])c1N,inactive: 12.3%
8,CN1CCCC(OC(=O)C(c2ccccc2)c2ccccc2)C1 (stereo not given),inactive: 36%
9,CN(C)CCOC(=O)C(O)(c1ccccc1)C1CCCC1 (stereo not given),inactive: -0.5%
10,Clc1ccc(Cl)c(NC2=NCC(CBr)S2)c1 (stereo not given),inactive: 0.8%
11,COc1ccccc1OP(=O)(Nc1ccc(C)cn1)Oc1ccccc1OC,inactive: 0.4%
12,COc1ccc(OP(C)(=O)Nc2ccccn2)cc1 (stereo not given),inactive: -4.8%
13,Cc1ccc(OP(=O)(Nc2nccs2)Oc2ccc(C)cc2)cc1,inactive: -1.9%
14,Oc1ccccc1CNc1ccccn1,inactive: -2.4%
15,O=C(NC(Sc1ccncn1)C(Cl)(Cl)Cl)c1ccccc1 (stereo not given),inactive: -6.5%
16,Cc1c2non([O-])c-2c(C)[n+](=O)[n+]1[O-],inactive: 5.2%
17,Nc1cc(N)c2nonc2c1[N+](=O)[O-],inactive: 18.2%
18,Cc1c(NP(C)(=O)Oc2ccc(C(C)C)cc2)c(=O)n(-c2ccccc2)n1C (stereo not given),inactive: -3.1%
19,O=[N+]([O-])c1cc([N+](=O)[O-])c(Nc2ccccn2)c([N+](=O)[O-])c1,inactive: -0.4%
20,CC(C)CC(=O)NC(Sc1ccc(Cl)cc1)C(Cl)(Cl)Cl (stereo not given),inactive: -8%
21,CCc1ccc(OP(C)(=O)O)cc1,inactive: -13.9%
22,CP(=O)(Nc1ccccn1)Oc1ccccc1 (stereo not given),inactive: 1.7%
23,COc1ccccc1OP(C)(=O)Nc1ccc(C)cc1C (stereo not given),inactive: 2.9%
